The subject of this test is BSA-(Y)-DOTA-Bn. As to the kind of experiment: Surface plasmon resonance (Biacore T100) binding to BSA-(Y)-DOTA-Bn. The following applies: bivalent analyte model. As for the experimental part:
Biacore T100 Biosensor, CMS sensor chip, and related reagents were purchased from GE Healthcare. A BSA-(Y)-DOTA-Bn conjugate was prepared as previously described. The antigen was immobilized using the Amine Coupling Kit (GE Healthcare). Purified BsAbs were analyzed, and data were fit to a bivalent analyte model using the Biacore T100 evaluation software as previously described.

Usually koff stands for a measure of how fast the partners let go of each other. High values mean fast dissociation, low ones slow dissociation. The kon is a measure of how fast the partners come together.

B1: huA33-C825: control BsAb; anti-GPA33 targeting BsAb made on the same platform (antibody)
heavy: EVQLLESGGGLVQPGGSLRLSCAASGFAFSTYDMSWVRQAPGKGLEWVATISSGGSYTYYLDSVKGRFTISRDSSKNTLYLQMNSLQAEDSAIYYCAPTTVVPFAYWGQGTLVTVSSASTKGPSVFPLAPSSKSTSGGTAALGCLVKDYFPEPVTVSWNSGALTSGVHTFPAVLQSSGLYSLSSVVTVPSSSLGTQTYICNVNHKPSNTKVDKRV[omitted - human IgG1 Fc with changes]
light: DIQMTQSPSSLSVSVGDRVTITCKASQNVRTVVAWYQQKPGLAPKTLIYLASNRHTGVPSRFSGSGSGTDFTFTISSLQPEDIATYFCQQHWSYPLTFGQGTKVEVKRTVAAPSVFIFPPSDEQLKSGTASVVCLLNNFYPREAKVQWKVDNALQSGNSQESVTEQDSKDSTYSLSSTLTLSKADYEKHKVYACEVTHQGLSSPVTKSFNRGECGGGGSGGGGSASHVKLQESGPGLVQPSQSLSLTCTVSGFSLTDYGVHWVRQSPGKGLEWLGVIWSGGGTAYNTALISRLNIYRDNSKNQVFLEMNSLQAEDTAMYYCARRGSYPYNYFDAWGCGTTVTVSSGGGGSGGGGSGGGGSQAVVIQESALTTPPGETVTLTCGSSTGAVTASNYANWVQEKPDHCFTGLIGGHNNRPPGVPARFSGSLIGDKAALTIAGTQTEDEAIYFCALWYSDHWVIGGGTRLTVLG
Consider B1, for which the koff amounted to 0.00022 s⁻¹ and the kon amounted to 19000 M⁻¹ s⁻¹. Moreover, the Kd (read-out: overall KD) is 11.6 nM.

The values above are taken from patent publication US20210017295A1, “BISPECIFIC BINDING AGENTS AND USES THEREOF” (MEMORIAL SLOAN KETTERING CANCER CENTER, priority 2018, published 2021).
